# AlphaSeq binding of Ab-14 light chain variants to a spike HR2 peptide

Binding partner: SARS-CoV-2 spike HR2 peptide, sequence PDVDLGDISGINAS.

Each scFv is VH, a (GGGGS)3 linker, VL, as in the parent Ab-14, and differs from it in the CDRs of the light chain only.
VH: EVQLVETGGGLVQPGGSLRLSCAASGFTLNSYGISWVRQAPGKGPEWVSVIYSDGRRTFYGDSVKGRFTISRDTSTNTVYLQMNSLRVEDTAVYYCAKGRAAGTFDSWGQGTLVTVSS
VL: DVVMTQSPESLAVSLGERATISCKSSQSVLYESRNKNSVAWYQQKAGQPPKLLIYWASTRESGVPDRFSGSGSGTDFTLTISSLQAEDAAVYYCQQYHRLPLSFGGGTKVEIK

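The parent was found by panning a naive human phage display library on the peptide. The variants were designed computationally from a first round of random CDR variants and then made and measured. Several design methods are mixed in this list. The assay is AlphaSeq: two haploid yeast populations carry antibody and antigen on their surface. Pairs that bind mate more often; barcode pairs of the diploids are counted by sequencing. Each replicate has its own calibration line, from reference interactions of the BCL2 family. Each pool was mated in six replicate cultures.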

Variants are written as CDR1, CDR2 and CDR3 of the light chain (limits as in the source). Parent: KSSQSVLYESRNKNSVA, WASTRES, QQYHRLPLS. Numbers give log10(Kd / nM), so 0 is 1 nM and 3 is 1 µM. Smaller is tighter. Averages over replicates are reported, and they cover detected replicates only. "no signal" means that the variant was in the library but no mating with the target was seen in any replicate; the authors take this as a sign of poor binding, and no number exists. Values of this round are not directly comparable with the first-round values of the same sequences. Three control strains display no target. For all light chain designs, 4% of the pairings with them gave a signal, with a median of 2.64 and one signal in twenty below 1.59, so weak values seen in few replicates may be background. For each scFv, signals with the empty controls are counted beside the result. The authors averaged sequences with at least three values out of six and counted those with two or fewer as poor binders.

{"CDR-L1": "KMSQSELFESRNKNSVA", "CDR-L2": "DASTRES", "CDR-L3": "QQYHRLPLS", "log10 Kd (nM), mean": "-0.31", "detected": "6 of 6", "empty controls": "0 of 18"}
{"CDR-L1": "KLMQSPEYESRWKNSVA", "CDR-L2": "NASQREE", "CDR-L3": "QQYHRLPLS", "log10 Kd (nM), mean": "0.24", "detected": "6 of 6", "empty controls": "2 of 18"}
{"CDR-L1": "KSLGSQEYESRNKNSVA", "CDR-L2": "HASTRED", "CDR-L3": "QQYHCLPLS", "log10 Kd (nM), mean": "1.48", "detected": "6 of 6", "empty controls": "0 of 18"}
{"CDR-L1": "KLSMSMLLESFHKNNVA", "CDR-L2": "ENSTREE", "CDR-L3": "QHYHRLPLS", "log10 Kd (nM), mean": "no signal", "detected": "0 of 6", "empty controls": "0 of 18"}
{"CDR-L1": "MLSQMWGVGSKVSNSVA", "CDR-L2": "QASMRFN", "CDR-L3": "QQYHRLPLI", "log10 Kd (nM), mean": "1.18", "detected": "6 of 6", "empty controls": "0 of 18"}
{"CDR-L1": "MISQLYNMGQFAINSVA", "CDR-L2": "QASIRNE", "CDR-L3": "QQYDRLPLM", "log10 Kd (nM), mean": "1.07", "detected": "6 of 6", "empty controls": "0 of 18"}
{"CDR-L1": "KISGMYQKESKNKNSVA", "CDR-L2": "EMVNREQ", "CDR-L3": "QQYDRLPLS", "log10 Kd (nM), mean": "1.21", "detected": "6 of 6", "empty controls": "0 of 18"}
{"CDR-L1": "KSSLSFLYESRNKNSVA", "CDR-L2": "EASTRES", "CDR-L3": "QQYHRLPLS", "log10 Kd (nM), mean": "0.73", "detected": "6 of 6", "empty controls": "1 of 18"}
{"CDR-L1": "KQDFSEPGESRNKNSVA", "CDR-L2": "DASTRMS", "CDR-L3": "QQYHRLPLS", "log10 Kd (nM), mean": "-0.07", "detected": "6 of 6", "empty controls": "0 of 18"}
{"CDR-L1": "KISMLSENELKNRNSVA", "CDR-L2": "ELVTRVN", "CDR-L3": "QQYNRLPLS", "log10 Kd (nM), mean": "0.33", "detected": "6 of 6", "empty controls": "0 of 18"}
{"CDR-L1": "QFDLFMNEQGMQNAAIA", "CDR-L2": "GATNRHT", "CDR-L3": "QQYQKLPLS", "log10 Kd (nM), mean": "1.55", "detected": "6 of 6", "empty controls": "0 of 18"}
{"CDR-L1": "KFSQSVLYESRDKNSVA", "CDR-L2": "NAVTRET", "CDR-L3": "QQYHRLPLS", "log10 Kd (nM), mean": "-0.29", "detected": "6 of 6", "empty controls": "1 of 18"}
{"CDR-L1": "KSSISELYESMNKNSVA", "CDR-L2": "LGSTRES", "CDR-L3": "QQYHRLPLS", "log10 Kd (nM), mean": "1.61", "detected": "6 of 6", "empty controls": "1 of 18"}
{"CDR-L1": "KLLQEVTGHSRNRNSVA", "CDR-L2": "HNSTREE", "CDR-L3": "QQYDRLPLI", "log10 Kd (nM), mean": "2.79", "detected": "5 of 6", "empty controls": "4 of 18"}
{"CDR-L1": "KVSQSDPYDSPNKNSVA", "CDR-L2": "NASTRMQ", "CDR-L3": "QQYHRLPLS", "log10 Kd (nM), mean": "0.10", "detected": "6 of 6", "empty controls": "0 of 18"}
{"CDR-L1": "KLSPSWLGEMRNDNSVA", "CDR-L2": "NASTRRS", "CDR-L3": "QQYHRLPLS", "log10 Kd (nM), mean": "-0.09", "detected": "6 of 6", "empty controls": "1 of 18"}
{"CDR-L1": "KLSLVLGVSKQVEKNIA", "CDR-L2": "NERLKVA", "CDR-L3": "QQYDRLPLT", "log10 Kd (nM), mean": "0.66", "detected": "6 of 6", "empty controls": "1 of 18"}
{"CDR-L1": "KSSQSVLYESRNKNSVA", "CDR-L2": "WASTQES", "CDR-L3": "QQYHRCPLQ", "log10 Kd (nM), mean": "no signal", "detected": "0 of 6", "empty controls": "0 of 18"}
{"CDR-L1": "KLEMSMPYESRMKNSVA", "CDR-L2": "HASVRES", "CDR-L3": "QQYHRLPLS", "log10 Kd (nM), mean": "0.00", "detected": "6 of 6", "empty controls": "1 of 18"}
{"CDR-L1": "QINHQGLSANLNDKNVA", "CDR-L2": "AKNLRVD", "CDR-L3": "QQYNRLPLS", "log10 Kd (nM), mean": "0.18", "detected": "6 of 6", "empty controls": "0 of 18"}
{"CDR-L1": "LLWQDMYNQRNQANAVA", "CDR-L2": "EGNILAN", "CDR-L3": "QQYARLPFS", "log10 Kd (nM), mean": "1.06", "detected": "6 of 6", "empty controls": "1 of 18"}
{"CDR-L1": "KSSQSFLYESRNKNSVA", "CDR-L2": "GASTRES", "CDR-L3": "QEYHRLPLS", "log10 Kd (nM), mean": "0.71", "detected": "6 of 6", "empty controls": "0 of 18"}

From the list, the first 2 with no signal in any replicate:

{"CDR-L1": "KLSMSMLLESFHKNNVA", "CDR-L2": "ENSTREE", "CDR-L3": "QHYHRLPLS", "log10 Kd (nM), mean": "no signal", "detected": "0 of 6", "empty controls": "0 of 18"}
{"CDR-L1": "KSSQSVLYESRNKNSVA", "CDR-L2": "WASTQES", "CDR-L3": "QQYHRCPLQ", "log10 Kd (nM), mean": "no signal", "detected": "0 of 6", "empty controls": "0 of 18"}

Reference: Li et al. 2023, doi:10.1038/s41467-023-39022-2. File: FLAb, binding data.